Assay results reported in ChEMBL document CHEMBL1131340, “alpha-Substituted malonester amides: tools to define the relationship between ACAT inhibition and adrenal toxicity” (J Med Chem, 1998).

Biological target: T1, Sterol O-acyltransferase 1 (Rattus norvegicus, UniProt O70536)
T1 sequence (O70536 whole entry): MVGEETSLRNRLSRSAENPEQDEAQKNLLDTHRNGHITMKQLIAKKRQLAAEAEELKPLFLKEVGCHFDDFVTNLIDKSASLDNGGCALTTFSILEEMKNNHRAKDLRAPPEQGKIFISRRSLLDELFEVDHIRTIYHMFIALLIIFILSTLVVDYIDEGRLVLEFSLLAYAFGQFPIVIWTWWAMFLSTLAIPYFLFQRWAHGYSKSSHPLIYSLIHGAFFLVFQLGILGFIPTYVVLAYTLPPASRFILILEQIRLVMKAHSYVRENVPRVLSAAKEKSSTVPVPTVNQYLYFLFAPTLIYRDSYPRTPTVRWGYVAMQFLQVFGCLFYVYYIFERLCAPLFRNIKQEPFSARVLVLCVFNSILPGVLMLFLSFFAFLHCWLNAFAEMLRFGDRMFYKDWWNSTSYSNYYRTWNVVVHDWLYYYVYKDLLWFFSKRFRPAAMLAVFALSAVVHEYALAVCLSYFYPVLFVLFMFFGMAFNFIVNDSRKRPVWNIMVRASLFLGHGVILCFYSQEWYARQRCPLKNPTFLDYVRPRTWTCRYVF
Assay: In vitro Acyl coenzyme A:cholesterol acyltransferase inhibition in hepatic microsomes isolated from cholesterol-fed rats
Parameters: species or system Liver
Outline: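 Hepatic microsomes from cholesterol-fed rats (LAI screen); ACAT inhibition reported as IC50.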

SMILES | IC50 [nM]
CCCCCCCCCCCCC(C)OC(=O)C(C(=O)Nc1c(C(C)C)cccc1C(C)C)c1ccccc1 (stereo not given) | 22
CCCCCCCCCCCCCCCCOC(=O)C(C(=O)Nc1c(C(C)C)cccc1C(C)C)c1ccccc1 (stereo not given) | 37
CCCCC(C)(C)OC(=O)C(C(=O)Nc1c(C(C)C)cccc1C(C)C)c1ccccc1 (stereo not given) | 11
CCCCCCCCOC(=O)C(C(=O)Nc1c(C(C)C)cccc1C(C)C)c1ccccc1 (stereo not given) | 13
CCCCCCCCCCCCOC(=O)C(C(=O)Nc1c(OC)cc(OC)cc1OC)c1ccccc1 (stereo not given) | 13
